Experimental data: ChEMBL document CHEMBL1133013, “Structure-activity relationships and pharmacokinetic analysis for a series of potent, systemically available biphenylsulfonamide matrix metalloproteinase inhibitors” (J Med Chem, 2000)

The chains behind the UniProt entries cited, without tags or fusion partners. Where a name states a change or a piece, a line headed by the entry shows the natural chain unless it says otherwise.
UniProt P08253: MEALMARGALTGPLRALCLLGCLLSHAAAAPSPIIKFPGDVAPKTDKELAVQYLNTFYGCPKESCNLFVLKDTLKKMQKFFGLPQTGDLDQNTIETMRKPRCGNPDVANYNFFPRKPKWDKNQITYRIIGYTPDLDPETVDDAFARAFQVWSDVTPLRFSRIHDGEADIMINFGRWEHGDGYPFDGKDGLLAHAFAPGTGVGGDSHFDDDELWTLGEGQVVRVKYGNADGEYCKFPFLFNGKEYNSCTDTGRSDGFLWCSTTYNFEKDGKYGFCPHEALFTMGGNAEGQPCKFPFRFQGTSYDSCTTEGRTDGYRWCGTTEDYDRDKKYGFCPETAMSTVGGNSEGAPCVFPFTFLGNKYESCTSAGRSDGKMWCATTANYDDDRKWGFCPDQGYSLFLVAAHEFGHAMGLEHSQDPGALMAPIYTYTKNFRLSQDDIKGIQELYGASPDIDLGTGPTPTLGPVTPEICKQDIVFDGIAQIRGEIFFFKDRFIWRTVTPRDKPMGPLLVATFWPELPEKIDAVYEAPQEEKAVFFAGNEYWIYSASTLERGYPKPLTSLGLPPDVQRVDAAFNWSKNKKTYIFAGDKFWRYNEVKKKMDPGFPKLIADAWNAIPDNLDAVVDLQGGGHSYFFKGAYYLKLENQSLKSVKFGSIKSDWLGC

Molecular target: 72 kDa type IV collagenase (Homo sapiens, UniProt P08253)
Assay: In vitro inhibition of matrix metalloprotease-2 (MMP-2)

SMILES	IC50
CC(C)[C@H](NS(=O)(=O)c1ccc(-c2ccc(N)cc2)cc1)C(=O)O	0.036 µM
CC(C)[C@@H](NS(=O)(=O)c1ccc(-c2ccc(Br)cc2)cc1)C(=O)O	0.005 µM
CC(C)[C@H](NS(=O)(=O)c1ccc(-c2ccc(Br)cc2)cc1)C(=O)O	0.004 µM
CC(C)[C@H](NS(=O)(=O)c1ccc(-c2ccc([N+](=O)[O-])cc2)cc1)C(=O)O	0.061 µM
